What was measured:
[1] = biological target: T1, paraoxonase 2 (PON2) (Homo sapiens, UniProt Q15165); assay: biochemical
T1 construct: made in house; host or cells: baculovirus-insect cells (microsomal preparation)

Chains of the proteins cited; added tags and fusions are not shown. Lines headed by an entry give the natural chain unless they say otherwise; changes in a name come on top.
UniProt Q15165: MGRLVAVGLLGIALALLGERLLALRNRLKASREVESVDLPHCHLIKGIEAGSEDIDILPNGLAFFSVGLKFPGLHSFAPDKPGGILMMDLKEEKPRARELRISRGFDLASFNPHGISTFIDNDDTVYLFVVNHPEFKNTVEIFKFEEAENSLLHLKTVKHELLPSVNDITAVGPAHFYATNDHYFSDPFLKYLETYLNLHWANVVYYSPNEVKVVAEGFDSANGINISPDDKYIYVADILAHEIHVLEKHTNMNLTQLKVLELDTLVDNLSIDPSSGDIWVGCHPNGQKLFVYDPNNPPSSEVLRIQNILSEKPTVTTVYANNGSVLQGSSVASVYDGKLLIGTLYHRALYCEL
UniProt P11716: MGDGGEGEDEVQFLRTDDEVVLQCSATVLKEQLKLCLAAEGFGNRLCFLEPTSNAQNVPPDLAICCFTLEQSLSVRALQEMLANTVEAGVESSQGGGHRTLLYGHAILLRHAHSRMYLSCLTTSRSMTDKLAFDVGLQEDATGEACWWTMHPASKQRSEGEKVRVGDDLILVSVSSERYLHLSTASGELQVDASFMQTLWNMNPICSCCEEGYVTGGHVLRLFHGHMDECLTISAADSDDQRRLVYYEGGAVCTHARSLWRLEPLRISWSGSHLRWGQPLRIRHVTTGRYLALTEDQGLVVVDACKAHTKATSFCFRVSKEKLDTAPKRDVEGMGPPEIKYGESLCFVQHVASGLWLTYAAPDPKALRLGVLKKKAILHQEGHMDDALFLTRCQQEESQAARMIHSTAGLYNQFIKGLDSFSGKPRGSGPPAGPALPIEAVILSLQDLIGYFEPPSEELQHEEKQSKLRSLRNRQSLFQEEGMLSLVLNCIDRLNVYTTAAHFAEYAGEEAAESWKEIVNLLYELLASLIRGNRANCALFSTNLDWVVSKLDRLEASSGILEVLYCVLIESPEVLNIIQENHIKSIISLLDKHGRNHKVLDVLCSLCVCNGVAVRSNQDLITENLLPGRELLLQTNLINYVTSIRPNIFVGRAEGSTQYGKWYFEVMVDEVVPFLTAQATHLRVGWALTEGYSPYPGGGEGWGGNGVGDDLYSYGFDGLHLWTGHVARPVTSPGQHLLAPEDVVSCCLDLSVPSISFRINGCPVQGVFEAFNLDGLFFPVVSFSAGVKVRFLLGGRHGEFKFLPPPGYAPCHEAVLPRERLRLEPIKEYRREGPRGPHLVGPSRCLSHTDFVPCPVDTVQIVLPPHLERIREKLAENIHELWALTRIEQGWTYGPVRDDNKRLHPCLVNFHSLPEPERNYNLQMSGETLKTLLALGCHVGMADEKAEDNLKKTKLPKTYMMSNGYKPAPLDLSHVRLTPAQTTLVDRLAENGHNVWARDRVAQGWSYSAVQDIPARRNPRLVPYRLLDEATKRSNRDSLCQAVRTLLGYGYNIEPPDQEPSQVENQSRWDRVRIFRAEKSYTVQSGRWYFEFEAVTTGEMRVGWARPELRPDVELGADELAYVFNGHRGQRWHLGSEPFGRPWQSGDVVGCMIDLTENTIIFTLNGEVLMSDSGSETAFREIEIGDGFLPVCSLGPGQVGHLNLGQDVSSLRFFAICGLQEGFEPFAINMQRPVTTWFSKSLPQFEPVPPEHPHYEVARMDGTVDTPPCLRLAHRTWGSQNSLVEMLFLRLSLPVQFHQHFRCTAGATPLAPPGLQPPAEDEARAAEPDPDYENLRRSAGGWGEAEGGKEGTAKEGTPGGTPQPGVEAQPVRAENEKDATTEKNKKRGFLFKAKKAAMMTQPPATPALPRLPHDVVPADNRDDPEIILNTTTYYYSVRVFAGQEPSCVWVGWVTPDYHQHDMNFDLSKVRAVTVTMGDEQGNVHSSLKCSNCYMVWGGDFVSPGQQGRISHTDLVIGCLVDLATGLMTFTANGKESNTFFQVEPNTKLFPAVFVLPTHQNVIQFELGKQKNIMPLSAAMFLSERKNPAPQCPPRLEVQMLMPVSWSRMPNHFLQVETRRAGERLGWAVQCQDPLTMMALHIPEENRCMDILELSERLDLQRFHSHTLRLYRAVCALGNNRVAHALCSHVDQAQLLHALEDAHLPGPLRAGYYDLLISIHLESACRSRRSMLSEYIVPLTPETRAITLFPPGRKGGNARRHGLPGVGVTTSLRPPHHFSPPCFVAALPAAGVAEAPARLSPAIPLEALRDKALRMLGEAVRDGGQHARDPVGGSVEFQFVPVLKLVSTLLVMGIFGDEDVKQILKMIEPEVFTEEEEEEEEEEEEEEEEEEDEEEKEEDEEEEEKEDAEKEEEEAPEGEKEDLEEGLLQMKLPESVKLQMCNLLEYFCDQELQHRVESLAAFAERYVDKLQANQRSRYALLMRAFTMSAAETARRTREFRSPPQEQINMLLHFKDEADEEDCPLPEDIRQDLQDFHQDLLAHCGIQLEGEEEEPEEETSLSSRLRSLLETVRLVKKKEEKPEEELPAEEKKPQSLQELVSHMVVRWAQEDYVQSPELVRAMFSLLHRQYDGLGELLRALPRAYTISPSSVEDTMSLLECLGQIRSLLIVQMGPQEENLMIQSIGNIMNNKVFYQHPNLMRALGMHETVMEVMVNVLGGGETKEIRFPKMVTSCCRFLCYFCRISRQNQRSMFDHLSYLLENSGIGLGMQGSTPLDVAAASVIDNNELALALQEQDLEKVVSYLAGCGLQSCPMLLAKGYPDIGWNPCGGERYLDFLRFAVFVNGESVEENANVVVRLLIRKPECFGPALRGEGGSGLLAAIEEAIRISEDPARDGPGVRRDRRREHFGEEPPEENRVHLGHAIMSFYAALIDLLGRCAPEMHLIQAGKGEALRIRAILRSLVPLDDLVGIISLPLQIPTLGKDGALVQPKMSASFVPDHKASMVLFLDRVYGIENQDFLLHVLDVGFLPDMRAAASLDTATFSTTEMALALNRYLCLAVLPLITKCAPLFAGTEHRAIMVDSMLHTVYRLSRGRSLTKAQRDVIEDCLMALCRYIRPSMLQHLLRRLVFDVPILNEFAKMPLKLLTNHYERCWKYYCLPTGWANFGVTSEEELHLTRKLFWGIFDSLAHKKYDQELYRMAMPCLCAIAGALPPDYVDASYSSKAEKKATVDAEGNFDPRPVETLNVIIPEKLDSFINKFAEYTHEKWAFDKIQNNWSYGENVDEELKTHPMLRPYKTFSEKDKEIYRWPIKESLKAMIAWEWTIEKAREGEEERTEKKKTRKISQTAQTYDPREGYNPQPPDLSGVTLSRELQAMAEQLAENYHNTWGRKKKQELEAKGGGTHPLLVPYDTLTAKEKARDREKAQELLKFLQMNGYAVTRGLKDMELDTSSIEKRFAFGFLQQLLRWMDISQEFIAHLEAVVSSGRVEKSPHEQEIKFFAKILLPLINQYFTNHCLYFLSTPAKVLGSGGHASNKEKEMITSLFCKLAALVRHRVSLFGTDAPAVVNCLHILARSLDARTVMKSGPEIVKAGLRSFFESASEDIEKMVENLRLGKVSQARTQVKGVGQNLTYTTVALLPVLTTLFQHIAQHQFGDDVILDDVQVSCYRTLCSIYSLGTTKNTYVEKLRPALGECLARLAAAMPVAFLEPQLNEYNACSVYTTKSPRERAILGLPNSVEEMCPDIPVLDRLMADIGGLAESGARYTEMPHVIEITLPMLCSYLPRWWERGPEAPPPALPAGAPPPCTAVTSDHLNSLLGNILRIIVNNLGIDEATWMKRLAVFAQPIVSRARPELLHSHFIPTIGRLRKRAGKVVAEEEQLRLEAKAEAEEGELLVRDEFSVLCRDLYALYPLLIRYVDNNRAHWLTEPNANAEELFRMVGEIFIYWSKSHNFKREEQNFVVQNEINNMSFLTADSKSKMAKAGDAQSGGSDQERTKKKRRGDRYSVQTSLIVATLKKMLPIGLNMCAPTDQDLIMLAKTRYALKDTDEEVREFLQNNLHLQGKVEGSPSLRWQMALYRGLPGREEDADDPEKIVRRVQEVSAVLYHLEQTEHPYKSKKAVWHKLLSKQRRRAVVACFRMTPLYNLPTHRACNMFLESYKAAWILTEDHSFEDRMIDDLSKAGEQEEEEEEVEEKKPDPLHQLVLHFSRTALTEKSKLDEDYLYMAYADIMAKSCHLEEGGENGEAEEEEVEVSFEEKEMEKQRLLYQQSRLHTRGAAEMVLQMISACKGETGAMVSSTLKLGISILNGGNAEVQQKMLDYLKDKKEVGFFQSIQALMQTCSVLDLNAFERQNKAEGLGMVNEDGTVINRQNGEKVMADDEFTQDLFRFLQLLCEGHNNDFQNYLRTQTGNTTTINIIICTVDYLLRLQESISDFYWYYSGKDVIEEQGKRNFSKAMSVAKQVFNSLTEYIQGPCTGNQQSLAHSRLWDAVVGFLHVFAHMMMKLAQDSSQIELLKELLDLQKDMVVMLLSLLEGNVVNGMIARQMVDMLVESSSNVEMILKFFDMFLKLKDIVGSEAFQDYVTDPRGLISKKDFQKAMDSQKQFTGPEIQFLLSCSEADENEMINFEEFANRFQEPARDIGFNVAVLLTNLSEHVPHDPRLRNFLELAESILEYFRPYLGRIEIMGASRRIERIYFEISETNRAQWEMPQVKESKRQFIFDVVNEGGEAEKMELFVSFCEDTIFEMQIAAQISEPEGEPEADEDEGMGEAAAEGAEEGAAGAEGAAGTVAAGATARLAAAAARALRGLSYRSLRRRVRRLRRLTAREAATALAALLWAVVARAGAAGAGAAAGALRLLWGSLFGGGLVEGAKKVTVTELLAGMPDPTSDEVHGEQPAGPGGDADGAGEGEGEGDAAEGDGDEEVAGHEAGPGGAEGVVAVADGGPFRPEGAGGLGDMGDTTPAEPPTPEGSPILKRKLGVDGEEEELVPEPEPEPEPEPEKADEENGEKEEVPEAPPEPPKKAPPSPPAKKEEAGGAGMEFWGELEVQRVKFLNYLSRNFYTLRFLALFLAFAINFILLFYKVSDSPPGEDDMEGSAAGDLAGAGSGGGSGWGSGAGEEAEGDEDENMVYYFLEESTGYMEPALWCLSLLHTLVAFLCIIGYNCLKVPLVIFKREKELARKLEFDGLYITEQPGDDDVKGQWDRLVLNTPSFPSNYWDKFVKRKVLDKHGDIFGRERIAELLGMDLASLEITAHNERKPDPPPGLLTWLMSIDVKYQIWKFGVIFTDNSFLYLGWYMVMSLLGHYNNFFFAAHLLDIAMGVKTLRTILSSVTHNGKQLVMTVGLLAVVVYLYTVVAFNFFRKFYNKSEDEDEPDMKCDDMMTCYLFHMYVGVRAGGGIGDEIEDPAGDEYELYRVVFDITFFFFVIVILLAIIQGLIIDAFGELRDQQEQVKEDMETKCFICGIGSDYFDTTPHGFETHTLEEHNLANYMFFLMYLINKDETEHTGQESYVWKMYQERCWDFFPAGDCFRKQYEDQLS

[2] = biological target: T2, type 1 ryanodine receptor (RyR1) (Oryctolagus cuniculus, UniProt P11716); assay: biochemical; assay type: binding, rabbit
T2 construct: Membranes enriched in ryanodine receptors (RyRs) were obtained either from adult rabbit skeletal muscle; from tissue; host or cells: adult rabbit skeletal muscle membranes

[3] = biological target: T3, human carboxylesterase CES1 (Homo sapiens, UniProt P23141); assay type: biochemical
T3 construct: made in house; host or cells: baculovirus-insect cells
T3 sequence (P23141 18-567): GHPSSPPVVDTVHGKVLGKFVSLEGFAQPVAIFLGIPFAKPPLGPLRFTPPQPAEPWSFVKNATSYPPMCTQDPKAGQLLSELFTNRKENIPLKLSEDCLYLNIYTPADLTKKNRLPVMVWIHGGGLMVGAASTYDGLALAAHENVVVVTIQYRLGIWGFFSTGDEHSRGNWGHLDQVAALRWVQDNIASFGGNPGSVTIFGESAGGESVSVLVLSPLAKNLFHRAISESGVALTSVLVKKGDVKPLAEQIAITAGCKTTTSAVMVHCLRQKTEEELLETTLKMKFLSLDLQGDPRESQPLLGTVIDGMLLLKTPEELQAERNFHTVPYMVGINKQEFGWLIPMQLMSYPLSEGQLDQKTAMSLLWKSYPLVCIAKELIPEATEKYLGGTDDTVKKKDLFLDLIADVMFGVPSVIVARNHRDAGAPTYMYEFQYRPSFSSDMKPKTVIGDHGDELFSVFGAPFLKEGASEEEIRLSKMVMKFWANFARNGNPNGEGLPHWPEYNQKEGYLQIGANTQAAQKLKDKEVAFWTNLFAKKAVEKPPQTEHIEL

[4] = biological target: T4, human carboxylesterase CES2 (Homo sapiens, UniProt O00748); assay: biochemical
T4 construct: made in house; host or cells: baculovirus-insect cells
T4 sequence (O00748 27-559): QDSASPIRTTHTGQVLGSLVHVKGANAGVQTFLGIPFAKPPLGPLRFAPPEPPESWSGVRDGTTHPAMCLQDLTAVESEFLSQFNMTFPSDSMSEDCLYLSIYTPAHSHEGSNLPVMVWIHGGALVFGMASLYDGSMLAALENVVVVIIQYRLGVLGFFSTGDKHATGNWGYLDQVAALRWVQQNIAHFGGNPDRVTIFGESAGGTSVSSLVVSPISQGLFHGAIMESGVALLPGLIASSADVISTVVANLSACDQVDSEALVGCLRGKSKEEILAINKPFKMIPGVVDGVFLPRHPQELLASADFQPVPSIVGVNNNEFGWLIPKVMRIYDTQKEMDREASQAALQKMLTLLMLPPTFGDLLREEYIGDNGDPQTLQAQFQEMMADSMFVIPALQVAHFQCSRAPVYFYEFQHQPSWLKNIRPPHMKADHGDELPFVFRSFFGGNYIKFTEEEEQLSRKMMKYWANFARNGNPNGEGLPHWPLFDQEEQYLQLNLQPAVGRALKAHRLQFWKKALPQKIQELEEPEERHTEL

In the case of `CCOP(=S)(OCC)SCSc1ccc(Cl)cc1` [Carbophenothion, carbophenothion], the IC50 [1] is reported as 110 ± 6 nM.
For `CCOP(=S)(OCC)Oc1nc(Cl)c(Cl)cc1Cl` [Chlorpyrifos, chlorpyrifos], the “increase of [3H]Ry binding to RyR1” value [2] was about 3 fold.
Work on `O=P(Oc1ccccc1)(Oc1ccccc1)Oc1ccccc1` [TPP, triphenyl phosphate] yielded an IC50 [1] of 85 ± 8 nM.
With `CCCCSP(SCCCC)SCCCC` [Tributyl phosphorotrithioite] the IC50 [1] was 120 ± 10 nM.
In the case of `Oc1cc(Cl)ccc1Oc1ccc(Cl)cc1Cl` [Triclosan, triclosan], the “mechanism of CES1 inhibition” value [3] is reported as “competitive mechanism” and the IC50 [4] is reported as 580 ± 30 nM.
Compound `O=C1C(Cl)=C(Cl)C(=O)C(Cl)=C1Cl` [chloranil] has an IC50 [2] of under 1000 nM.
`CC1(C)[C@H](C(=O)O[C@H](C#N)c2cccc(Oc3ccccc3)c2)[C@@H]1C=C(Br)Br` [deltamethrin] was tested, and the “effect on [3H]Ry binding to RyR1 (counterscreen)” value [2] was “no significant effect”.
With `ClC(Cl)=C(c1ccc(Cl)cc1)c1ccccc1Cl` [o,p-DDE, dichlorodiphenyldichloroethylene] the “increase of [3H]Ry binding to RyR1” value [2] was about 3 fold.
In the case of `CC1(C)C(C=C(Cl)Cl)C1C(=O)OC(C#N)c1cccc(Oc2ccccc2)c1` (stereo not drawn) [α-cypermethrin], the “effect on [3H]Ry binding to RyR1 (counterscreen)” value [2] is reported as “no significant effect”.

— publication PMC2799460 (Environmental Health Perspectives, 2009)
